# Values quoted from earlier work, collected in patent US20250325518A1, “USE OF A COMBINATION OF SACUBITRIL AND VALSARTAN” (Novartis AG, priority 2016, published 2025).
# System: adult patients with HF with reduced ejection fraction (HFrEF)
substance,measurement,value
"trisodium [3-((1S,3R)-1-biphenyl-4-ylmethyl-3-ethoxycarbonyl-1-butylcarbamoyl)propionate-(S)-3′-methyl-2′-(pentanoyl{2″-(tetrazol-5-ylate)biphenyl-4′-ylmethyl}amino)butyrate] hemipentahydrate [LCZ696]",safety and tolerability,generally safe and well tolerated
